Literature values in patent publication US20050202505A1, “Method to identify modulators for human 3alpha-hydroxysteroid dehydrogenase” (priority 2001, published 2005).

Molecular target: GABAA receptor
Details: allosteric effector of the GABAA receptor; cited from earlier work

Q: Which Kd does the source give for `CC(=O)[C@H]1CC[C@H]2[C@@H]3CC[C@H]4C[C@H](O)CC[C@]4(C)[C@H]3CC[C@]12C` [allopregnanolone, 3α-hydroxy-5a-pregnan-20-one] here?
A: 1 nM
